Data published in paper PMC7534037.

Legend:
[1] = tested on: primary chicken kidney cells (cKC); conditions: up to 20 μM; 72 h; luminescent ATP assay
[2] = human; following oral administration; active form of drug; ref He et al., 1999; cited from earlier work

For oseltamivir carboxylate, the “cell viability of cKC” value [1] is given as “did not alter the cKC cell viability” and the “amount excreted in urine” value [2] is given as greater than 80%.
